The text below walks through data of paper PMC6828767.

The target of this test is glutathione S-transferase (GST)-CaBP1 (UniProt Q9NZU7).

As to “higher-order α-synuclein oligomers larger than 100 kDa (wild-type α-synuclein incubated with dopamine) (from UniProt P37840 1-140) (complex)”, the IAHP charge in neocortical pyramidal neurons with intracellular co-application of αSNo and CaBP1 (GST-CaBP1, 16 nM); the αSNo-mediated enhancement was reversed stood at 3 pC; the spike frequency during current steps in neocortical pyramidal neurons with intracellular co-application of αSNo and CaBP1 (GST-CaBP1, 16 nM); the αSNo-mediated reduction was reversed amounted to 27.8 Hz.
